# Data reported in patent US4559323A, “A41030 Antibiotics” (Eli Lilly and Company, priority 1984, dated 1985).
# Legend:
# [1] = system: Peptostreptococcus anaerobius; assay: Agar-dilution MIC (anaerobes); type: cell-based; settings: Table 15; Ps. anaerobius 8
# Method: (§1) The MIC values were determined by the agar-dilution method, and are recorded in Table 15, which follows.
# [2] = system: Peptostreptococcus intermedius; assay: Agar-dilution MIC (anaerobes); type: cell-based
# Method: as §1
# [3] = mice, administered intraperitoneally
substance,measurement,setting,value
A41030 factor C,MIC,[1],0.5 µg/mL
same,MIC,"[2]; Table 14, Peptostreptococcus intermedius 1264",0.5 µg/mL
same,MIC,"[2]; Table 15, Ps. intermedius 1524",0.5 µg/mL
same,LD50,[3],> 300 mg/kg
same,acute toxicity,[3],> 300 mg/kg
